Assay results: EP4847503A1, “TETRAZOLE COMPOUND, PHARMACEUTICAL COMPOSITION THEREOF AND USE THEREOF” (dated 2026)

By UniProt entry, the sequences of proteins in these tests, tags left out.
UniProt P50052, whole entry: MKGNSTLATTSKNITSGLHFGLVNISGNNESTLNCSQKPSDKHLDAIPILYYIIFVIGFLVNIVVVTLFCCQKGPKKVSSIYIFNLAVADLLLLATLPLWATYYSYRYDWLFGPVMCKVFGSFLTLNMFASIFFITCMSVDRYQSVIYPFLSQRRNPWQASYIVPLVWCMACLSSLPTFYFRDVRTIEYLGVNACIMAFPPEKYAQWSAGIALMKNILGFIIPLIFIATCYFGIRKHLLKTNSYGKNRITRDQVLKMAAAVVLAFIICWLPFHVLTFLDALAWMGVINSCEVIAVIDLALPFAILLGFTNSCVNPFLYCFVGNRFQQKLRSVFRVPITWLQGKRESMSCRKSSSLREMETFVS

Key:
[1] = target: AT2 receptor (Homo sapiens, UniProt P50052); assay: AT2R Binding assay (Tag-lite HTRF, affinity for AT2 receptor); settings: read-out: AT2R IC50; Tag-lite Angiotensin AT2 labeled Cells, 25 °C, 1 hour
Method: Test Example 1 Determination of the affinity of the test compounds for AT2 receptor by AT2R Binding assay
1. Reagent preparation • 1.1 Cell line: Tag-lite Angiotensin AT2 labeled Cells; • 1.2 Assay buffer: 1X TLB (5 mL 5X TLB + 20 mL H2O); 2. Activity assay of the test compounds • 2.1 1X TLB assay buffer, 4X working solutions of the test compounds, and 4X Tag-lite angiotensin receptor red agonist (Cisbio, L0007RED) were prepared; • 2.2 One vial of labeled-AT2R cells was thawed in a water bath at 37 °C until the ice completely melted (1-2 min). The thawed cells were quickly transferred to 5 mL of 1X TLB, mixed gently, and centrifuged at 200 g for 5 min; • 2.3 The supernatant was discarded, and the cells were resuspended and mixed with 1 mL of 1X TLB. Then, 1.7 mL of 1X TLB was added and mixed, and the mixture was kept at room temperature for later use; • 2.4 10 µL of cells were added to a 384-well plate (Greiner, 784075) and centrifuged at 200 g at RT for 3 s; 5 µL of the 4X compound was added to the 384-well plate; 5 µL of the 4X Tag-lite angiotensin receptor red agonist was added to all test wells; • 2.5 The reaction plate was left to stand at room temperature of 25 °C for 1 hour, and then centrifuged at 200 g, RT for 60 s. Data was collected using an Envision HTRF detector. 3. Data analysis • 3.1 Calculation of % inhibition: [formula] • 3.2 Calculation of compound IC50 using GraphPad non-linear fitting formula: Y = Bottom + (Top-Bottom)/(1+10^(∧)((LogIC50-X)*HillSlope)) [formula] • X: log value of compound concentration; Y: % inhibition 4. Experimental results

[2] = Pharmacokinetic behavior in rats; settings: SD rats
Method: Test Example 4 Study on the pharmacokinetic behavior of the compounds of the present invention in rats
(§1) Healthy SD rats (SPF grade, source: Beijing Vital River Laboratory Animal Technology Co., Ltd.), 3 animals, male, weighing 180-250 g, were intravenously injected with 1 mg/kg of the compound at a dosing volume of 2 mL/kg. The compound was formulated with 5% DMSO + 10% Solutol + 85% Saline (w/v), and the animals were not fasted prior to the test.
as §1, with “were intragastrically administered” for “were intravenously injected”, “with 5” for “with 1”, “of 10” for “of 2”
(§2) Blood samples (approx. 0.25 mL each) were collected via the vein at 5 min, 15 min, 30 min, 1 h, 2 h, 4 h, 6 h, 8 h, and 24 h after intravenous administration, and at 5 min, 15 min, 30 min, 1 h, 2 h, 4 h, 6 h, 8 h, and 24 h after intragastric administration, respectively, using sodium heparin as an anticoagulant. After collection, the blood samples were placed on ice, and the plasma was separated by centrifugation within 1 hour (centrifugation conditions: 6000 g, 3 minutes, 2-8 °C). The concentration of the compound in plasma was determined by liquid chromatography-tandem mass spectrometry. Plasma samples were stored in a -80 °C freezer before analysis. Pharmacokinetic parameters were calculated using Phoenix WinNonlin 8.2.0 based on plasma concentration data at different time points.

[3] = Pharmacokinetic behavior in mice; settings: ICR mice; for F(%): intragastric administration 5 mg/kg vs intravenous 1 mg/kg
Method: Test Example 3 Study on the pharmacokinetic behavior of the compounds of the present invention in mice
as §1, with “ICR mice” for “SD rats”, “18-25” for “180-250”, “5 mL/kg,” for “2 mL/kg. The compound was”, “(w/v). Animals” for “(w/v), and the animals”, “were” for “were not”
Healthy ICR mice (SPF grade, source: Beijing Vital River Laboratory Animal Technology Co., Ltd.), 3 animals, male, weighing 18-25 g, were intragastrically administered with 5 mg/kg of the compound at a dosing volume of 10 mL/kg, formulated with 5% DMSO + 10% Solutol + 85% Saline (w/v). Animals were fasted prior to the test.
as §2, with “0.05” for “0.25”, “cheek” for “vein”

[4] = intragastric administration 5 mg/kg

IC50 [1] [nM] | SMILES | further results
25.5 | Cc1cnn(-c2cc(CC(C)C)cc(N3CCN(Cc4cccnn4)[C@@H](C)C3)c2-c2nn[nH]n2)c1 | 
3.8 | CC(C)Cc1cc(C(F)F)c(-c2nn[nH]n2)c(N2CCN(Cc3cccnn3)[C@@H](C)C2)c1 | 
5.05 | CC(C)Cc1cc(O[C@H]2CCOC2)c(-c2nn[nH]n2)c(N2CCN(Cc3cccnn3)[C@@H](C)C2)c1 | 
11.9 | CC(C)Cc1cc(NC(=O)C2CC2)c(-c2nn[nH]n2)c(N2CCN(Cc3cccnn3)[C@@H](C)C2)c1 | 
17.7 | COC1CCCCC1Nc1cc(CC(C)C)cc(N2CCN(Cc3cccnn3)[C@@H](C)C2)c1-c1nn[nH]n1 (some centres unmarked) | 
2.58 | CC(C)Cc1cc(NC2CCC2)c(-c2nn[nH]n2)c(N2CCN(Cc3cccnn3)[C@@H](C)C2)c1 | 
6.6 | CC(C)Cc1cc(NC2CC2)c(-c2nn[nH]n2)c(N2CCN(Cc3cccnn3)[C@@H](C)C2)c1 | AUClast [2, 4]: 72093 ng·h/mL; Cmax [2, 4]: 7089 ng/mL; T1/2 [2, 4]: 4.08 h; F(%) ([2]; intragastric administration 5 mg/kg vs intravenous 1 mg/kg): 100%; AUClast ([2]; intravenous injection 1 mg/kg): 14313 ng·h/mL; CL ([2]; intravenous injection 1 mg/kg): 1.17 mL/min/kg; Cmax ([2]; intravenous injection 1 mg/kg): 5510 ng/mL; Vss ([2]; intravenous injection 1 mg/kg): 0.243 L/kg; AUClast [3, 4]: 26737 ng·h/mL; Cmax [3, 4]: 11236 ng/mL; T1/2 [3, 4]: 2.41 h; F(%) [3]: 96%; AUClast ([3]; intravenous injection 1 mg/kg): 5551 ng·h/mL; CL ([3]; intravenous injection 1 mg/kg): 3.03 mL/min/kg; Cmax ([3]; intravenous injection 1 mg/kg): 4599 ng/mL; Vss ([3]; intravenous injection 1 mg/kg): 0.372 L/kg
1.9 | CC(C)Cc1cc(Nc2cnn(C(C)C)c2)c(-c2nn[nH]n2)c(N2CCN(Cc3cccnn3)[C@@H](C)C2)c1 | 
3.45 | C[C@H]1CN(c2cc(CC3CC3(F)F)cc(NC3CC(F)(F)C3)c2-c2nn[nH]n2)CCN1Cc1cccnn1 (some centres unmarked) | AUClast [3, 4]: 28784 ng·h/mL; Cmax [3, 4]: 15358 ng/mL; T1/2 [3, 4]: 1.6 h; F(%) [3]: 73.5%; AUClast ([3]; intravenous injection 1 mg/kg): 7828 ng·h/mL; CL ([3]; intravenous injection 1 mg/kg): 2.02 mL/min/kg; Cmax ([3]; intravenous injection 1 mg/kg): 6257 ng/mL; Vss ([3]; intravenous injection 1 mg/kg): 0.306 L/kg
3.01 | CC(C)Cc1cc(N[C@@H]2CCC(F)(F)C2)c(-c2nn[nH]n2)c(N2CCN(Cc3cccnn3)[C@@H](C)C2)c1 | 
4.11 | CC(C)Cc1cc(OC2CC(F)(F)C2)c(-c2nn[nH]n2)c(N2CCN(Cc3cccnn3)[C@@H](C)C2)c1 | 
3.31 | CC(C)Cc1cc(NC(=O)C2CC(F)(F)C2)c(-c2nn[nH]n2)c(N2CCN(Cc3cccnn3)[C@@H](C)C2)c1 | 
18.2 | COCCNc1cc(CC(C)C)cc(N2CCN(Cc3cccnn3)[C@@H](C)C2)c1-c1nn[nH]n1 | 
7 | C[C@H]1CN(c2cc(CC3CC3(F)F)cc(N3CCC(F)(F)C3)c2-c2nn[nH]n2)CCN1Cc1cccnn1 (some centres unmarked) | 
3.8 | CC(C)Cc1cc(NC2CCCC2)c(-c2nn[nH]n2)c(N2CCN(Cc3cccnn3)[C@@H](C)C2)c1 | 
2.96 | CCn1cc(Nc2cc(CC(C)C)cc(N3CCN(Cc4cccnn4)[C@@H](C)C3)c2-c2nn[nH]n2)cn1 | 

IC50 [1] [nM] | SMILES | further results
11 | CC(C)Cc1cc(NC2(C)CCC2)c(-c2nn[nH]n2)c(N2CCN(Cc3cccnn3)[C@@H](C)C2)c1 | 
5.08 | CC(C)Cc1cc(N2CCN(Cc3cccnn3)[C@@H](C)C2)c(-c2nn[nH]n2)c(N2CCC3(CC3)C2)c1 | 
8.47 | CC(C)Cc1cc(NC23CC(C2)C3)c(-c2nn[nH]n2)c(N2CCN(Cc3cccnn3)[C@@H](C)C2)c1 | 
7.41 | CC(C)Cc1cc(Oc2cnn(C)c2)c(-c2nn[nH]n2)c(N2CCN(Cc3cccnn3)[C@@H](C)C2)c1 | 
4.11 | CC(C)Cc1cc(N2CC3C(C2)C3(F)F)c(-c2nn[nH]n2)c(N2CCN(Cc3cccnn3)[C@@H](C)C2)c1 (some centres unmarked) | 
2.36 | CC(C)Cc1cc(N2CCN(Cc3cccnn3)[C@@H](C)C2)c(-c2nn[nH]n2)c(N2CC(F)(F)C2)c1 | 
12.8 | CO[C@@H]1CCC[C@H]1Nc1cc(CC(C)C)cc(N2CCN(Cc3cccnn3)[C@@H](C)C2)c1-c1nn[nH]n1 | 
6.53 | CC(C)Cc1cc(N)c(-c2nn[nH]n2)c(N2CCN(Cc3cccnn3)[C@@H](C)C2)c1 | 
3.31 | CC(C)Cc1cc(N[C@H]2CCC(F)(F)C2)c(-c2nn[nH]n2)c(N2CCN(Cc3cccnn3)[C@@H](C)C2)c1 | 
1.78 | Cc1cnn(Cc2cc(CC(C)C)cc(N3CCN(Cc4cccnn4)[C@@H](C)C3)c2-c2nn[nH]n2)c1 | 
0.891 | CC(C)Cc1cc(Cn2cc(C3CC3)cn2)c(-c2nn[nH]n2)c(N2CCN(Cc3cccnn3)[C@@H](C)C2)c1 | 
4.77 | CC(C)Cc1cc(C2CC(F)(F)C2)c(-c2nn[nH]n2)c(N2CCN(Cc3cccnn3)[C@@H](C)C2)c1 | 
7.18 | COC1CC1Nc1cc(CC(C)C)cc(N2CCN(Cc3cccnn3)[C@@H](C)C2)c1-c1nn[nH]n1 (some centres unmarked) | 
3.35 | CC(C)Cc1cc(NC2CCC(F)(F)CC2)c(-c2nn[nH]n2)c(N2CCN(Cc3cccnn3)[C@@H](C)C2)c1 | 
2.96 | CC(C)Cc1cc(NCC(F)F)c(-c2nn[nH]n2)c(N2CCN(Cc3cccnn3)[C@@H](C)C2)c1 | 
6.3 | CC(C)Cc1cc(N2CCN(Cc3cccnn3)[C@@H](C)C2)c(-c2nn[nH]n2)c(N2CC3(C2)CC(F)(F)C3)c1 | 
